Reference: PubChem BioAssay (NCI)
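Five compound concentrations were applied to cells in 96-well plates for 48 hours; endpoints were derived by simple linear interpolation of the resulting dose-response curve. Definition used: TGI = concentration required for complete inhibition of growth.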

How the values were obtained:
Assay in all cases: growth of human tumour cells (NCI), 48 h
NCI-H226 lung = test system: NCI-H226 lung
DLD-1 colon = test system: DLD-1 colon
HT29 colon = test system: HT29 colon
SK-OV-3 ovarian = test system: SK-OV-3 ovarian
NCI-H460 lung = test system: NCI-H460 lung
LXFL 529 NSCLC = test system: LXFL 529 NSCLC
SR leukemia = test system: SR leukemia
IGROV1 ovarian = test system: IGROV1 ovarian
SNB-19 CNS = test system: SNB-19 CNS
NCI-H522 lung = test system: NCI-H522 lung
TK-10 renal = test system: TK-10 renal
EKVX NSCLC = test system: EKVX NSCLC
OVCAR-5 ovarian = test system: OVCAR-5 ovarian
K-562 leukemia = test system: K-562 leukemia
A549 NSCLC = test system: A549 NSCLC
MDA-MB-435 = test system: MDA-MB-435
COLO 205 colon = test system: COLO 205 colon
SN12C renal = test system: SN12C renal
NCI-H322M lung = test system: NCI-H322M lung
U251 CNS = test system: U251 CNS
T-47D breast = test system: T-47D breast
MDA-MB-231 breast = test system: MDA-MB-231 breast
HCT-15 colon = test system: HCT-15 colon
786-0 renal = test system: 786-0 renal
KM20L2 colon = test system: KM20L2 colon
DU-145 prostate = test system: DU-145 prostate
PC-3 prostate = test system: PC-3 prostate
SF-268 CNS = test system: SF-268 CNS
SK-MEL-5 melanoma = test system: SK-MEL-5 melanoma
SNB-78 CNS = test system: SNB-78 CNS
LOX IMVI melanoma = test system: LOX IMVI melanoma
UO-31 renal = test system: UO-31 renal
M19-MEL melanoma = test system: M19-MEL melanoma
CCRF-CEM leukemia = test system: CCRF-CEM leukemia
HOP-92 NSCLC = test system: HOP-92 NSCLC
HS 578T breast = test system: HS 578T breast
CAKI-1 renal = test system: CAKI-1 renal
SK-MEL-2 melanoma = test system: SK-MEL-2 melanoma
M14 melanoma = test system: M14 melanoma
MALME-3M melanoma = test system: MALME-3M melanoma
SW-620 colon = test system: SW-620 colon
HCT-116 colon = test system: HCT-116 colon
SK-MEL-28 melanoma = test system: SK-MEL-28 melanoma
ACHN renal = test system: ACHN renal
OVCAR-4 ovarian = test system: OVCAR-4 ovarian
SNB-75 CNS = test system: SNB-75 CNS
MOLT-4 leukemia = test system: MOLT-4 leukemia
SF-295 CNS = test system: SF-295 CNS
UACC-62 melanoma = test system: UACC-62 melanoma
HOP-62 NSCLC = test system: HOP-62 NSCLC
NCI-H23 lung = test system: NCI-H23 lung
DMS 273 small cell lung = test system: DMS 273 small cell lung
RPMI-8226 leukemia = test system: RPMI-8226 leukemia
HOP-18 NSCLC = test system: HOP-18 NSCLC
OVCAR-8 ovarian = test system: OVCAR-8 ovarian
RXF 393 renal = test system: RXF 393 renal
HCC-2998 colon = test system: HCC-2998 colon
BT-549 breast = test system: BT-549 breast
A498 renal = test system: A498 renal
MDA-N = test system: MDA-N
HL-60(TB) leukemia = test system: HL-60(TB) leukemia
MCF7 breast = test system: MCF7 breast
UACC-257 melanoma = test system: UACC-257 melanoma
KM12 colon = test system: KM12 colon
OVCAR-3 ovarian = test system: OVCAR-3 ovarian
SF-539 CNS = test system: SF-539 CNS

CC1CC[P+](c2ccccc2)(c2ccccc2)c2c1ccc1ccccc21 (stereo unspecified) was tested, and the TGI (NCI-H226 lung) was 37.4 µM, the TGI (DLD-1 colon) was 95.1 µM and the TGI (HT29 colon) was 12.5 µM. For the same molecule, the TGI (SK-OV-3 ovarian) was 32.7 µM, the TGI (NCI-H460 lung) was 12.8 µM and the TGI (LXFL 529 NSCLC) was 13.9 µM. It also gave a TGI (SR leukemia) of 32.6 µM, a TGI (IGROV1 ovarian) of 19.7 µM and a TGI (SNB-19 CNS) of 28.2 µM. The TGI (NCI-H522 lung) was 11.7 µM, the TGI (TK-10 renal) was 55 µM and the TGI (EKVX NSCLC) was 98.4 µM. The TGI (OVCAR-5 ovarian) was 43.5 µM, the TGI (K-562 leukemia) was over 100 µM and the TGI (A549 NSCLC) was 61.4 µM. It also gave a TGI (MDA-MB-435) of 12.1 µM, a TGI (COLO 205 colon) of 2.27 µM and a TGI (SN12C renal) of 13.8 µM. It also gave a TGI (NCI-H322M lung) of 58.1 µM, a TGI (U251 CNS) of 9.66 µM and a TGI (T-47D breast) of 35.3 µM. The TGI (MDA-MB-231 breast) was 27.9 µM, the TGI (HCT-15 colon) was 94.2 µM and the TGI (786-0 renal) was 86.6 µM. It also gave a TGI (KM20L2 colon) of 13.5 µM, a TGI (DU-145 prostate) of 61.2 µM and a TGI (PC-3 prostate) of 6.68 µM. The TGI (SF-268 CNS) was 28.9 µM, the TGI (SK-MEL-5 melanoma) was 10.7 µM and the TGI (SNB-78 CNS) was 14.6 µM. The TGI (LOX IMVI melanoma) was 13.6 µM, the TGI (UO-31 renal) was 49.5 µM and the TGI (M19-MEL melanoma) was 16.4 µM. It also gave a TGI (CCRF-CEM leukemia) of over 100 µM, a TGI (HOP-92 NSCLC) of 4.77 µM and a TGI (HS 578T breast) of 8.35 µM. The TGI (CAKI-1 renal) was 22.3 µM, the TGI (SK-MEL-2 melanoma) was 7.27 µM and the TGI (M14 melanoma) was 16.7 µM. For the same molecule, the TGI (MALME-3M melanoma) was 20.5 µM, the TGI (SW-620 colon) was 21.9 µM and the TGI (HCT-116 colon) was 10.6 µM. It also gave a TGI (SK-MEL-28 melanoma) of 17.4 µM, a TGI (ACHN renal) of 45.3 µM and a TGI (OVCAR-4 ovarian) of 56.9 µM. For the same molecule, the TGI (SNB-75 CNS) was 8.03 µM, the TGI (MOLT-4 leukemia) was 76.6 µM and the TGI (SF-295 CNS) was 21.6 µM. The TGI (UACC-62 melanoma) was 14.9 µM, the TGI (HOP-62 NSCLC) was 21.1 µM and the TGI (NCI-H23 lung) was 6.62 µM. It also gave a TGI (DMS 273 small cell lung) of 3.08 µM, a TGI (RPMI-8226 leukemia) of 37 µM and a TGI (HOP-18 NSCLC) of 10.8 µM. It also gave a TGI (OVCAR-8 ovarian) of 9.1 µM, a TGI (RXF 393 renal) of 36.4 µM and a TGI (HCC-2998 colon) of 29.8 µM. The TGI (BT-549 breast) was 7.08 µM, the TGI (A498 renal) was 29.7 µM and the TGI (MDA-N) was 8.25 µM. For the same molecule, the TGI (HL-60(TB) leukemia) was 24.8 µM, the TGI (MCF7 breast) was 17.2 µM and the TGI (UACC-257 melanoma) was 5.15 µM. The TGI (KM12 colon) was 13.3 µM, the TGI (OVCAR-3 ovarian) was 40.6 µM and the TGI (SF-539 CNS) was 30.6 µM.
